Test results as given in patent US9387206B2, “Therapeutic approaches for treating Alzheimer's disease” (PHARNEXT, priority 2009, dated 2016).

System: human brain microvascular endothelial cells (HBMEC)
Experiment: Total length of capillary network in human Aβ1-42 intoxicated HBMEC cultures
Format: cell-based
Details: VEGF 10 nM, 1 hr pre-treatment; Aβ1-42 2.5 μM, 18 h
Experimental: Human brain microvascular endothelial cell cultures were used to study the protection afforded by candidate compounds on Aβ1-42 toxicity.
Human brain microvascular endothelial cerebral cells (HBMEC, ScienCell Ref: 1000, frozen at passage 10) were rapidly thawed in a water bath at +37° C. […] On matrigel support, endothelial cerebral cells spontaneously started the process of capillary network morphogenesis (47).
Three separate cultures were performed per condition, 6 wells per condition.
The control medium was prepared in the same conditions.
The Aβ1-42 peptide was added 2 hours after HBMEC seeding on matrigel for 18 hours incubation.
Capillary Network Quantification
Per well, 2 pictures with 4× lens were taken using InCell Analyzer™ 1000 (GE Healthcare) in light transmission. All images were taken in the same conditions. Analysis of the angiogenesis networks was done using Developer software (GE Healthcare). The total length of capillary network was assessed.
All values are expressed as mean±s.e.mean of the 3 cultures (n=6 per condition). Statistical analyses were done on the different conditions performing an ANOVA followed by the Dunnett's test when it was allowed (Statview software version 5.0). […] Indeed, the amyloid toxicity was taken as the 100% and the test compound effect was calculated as a % of this amyloid toxicity.

Substance: VEGF
- Capillary network compared to amyloid intoxication: +78%
